# Article PMC8958505, “Discovery of Potential Neuroprotective Agents against Paclitaxel-Induced Peripheral Neuropathy” (Journal of Medicinal Chemistry, 2022)
# Where a name gives a salt, the structure may show the parent alone.
# Legend:
# Prostanoid EP4 = Prostanoid EP4 (Homo sapiens, UniProt P35408); assay: LeadProfilingScreen: Prostanoid EP4; assay type: binding
# Glucocorticoid = Glucocorticoid (Homo sapiens, UniProt P04150); assay: LeadProfilingScreen: Glucocorticoid; assay type: binding
# CYP 1A2 = biological target: T1, CYP 1A2 (Homo sapiens, UniProt P05177); assay: Cytochrome P450 testing, CYP 1A2; assay type: in vitro ADME; details: phenacetin O-deethylation; read-out: Concentration of inhibition (IC50), CYP 1A2
# T1 construct: host or cells: baculovirus-infected insect cells (supersomes)
# From the text: (§1) Cytochrome P450 testing of CN016
# (§2) The effects of CN016 on the activity of six specific human liver cytochrome P450 isozymes (CYP 1A2, 2C9, 2C19, 2D6, 2E1, 3A4) expressed in baculovirus-infected insect cell supersomes were studied. The reactions used to measure the activity of these enzymes were phenacetin O-deethylation (1A2), diclofenac 4-hydroxylation (2C9), mephenytoin 4-hydroxylation (2C19), dextromethorphan O-demethylation (2D6), chlorzoxazone 6-hydroxylation (2E1) and testosterone 6-hydroxylation (3A4).
# (§3) Furafylline, sulfaphenazole, tranylcypromine, quinidine, diethyldithiocarbamate and azamulin were used as reference inhibitors of these enzymes. Incubation mixtures containing no CN016 or reference inhibitors were used as controls. The tested result […]
# (§4) Table S4. Result of Cytochrome P450 testing of CN016
# Adenosine A3 = Adenosine A3 (Homo sapiens, UniProt P0DMS8); assay: LeadProfilingScreen: Adenosine A3; assay type: binding
# Adrenergic α1A = Adrenergic α1A (Homo sapiens, UniProt P35348); assay: LeadProfilingScreen: Adrenergic α1A; assay type: binding
# hERG [1] = biological target: T2, hERG (Homo sapiens, UniProt Q12809); assay: LeadProfilingScreen: Potassium Channel hERG; assay type: binding
# Purinergic P2X = assay: LeadProfilingScreen: Purinergic P2X; assay type: binding, rat; details: 10 μM
# Sigma σ1 = Sigma σ1 (Homo sapiens, UniProt Q99720); assay: LeadProfilingScreen: Sigma σ1; assay type: binding
# Interleukin IL-1 R1 = Interleukin IL-1 R1 (Homo sapiens, UniProt P14778); assay: LeadProfilingScreen: Interleukin IL-1 R1; assay type: binding
# Dopamine D4.4 = Dopamine D4.4 (Homo sapiens, UniProt P21917); assay: LeadProfilingScreen: Dopamine D4.4; assay type: binding
# [2] = tested on: paclitaxel-induced neuropathy in C57BL/6 mice; assay: von Frey filament test (mechanical) in paclitaxel-induced neuropathy; assay type: in vivo, mouse
# Method: (§5) Three behavioral models of paclitaxel-induced neuropathy were used to verify the neuroprotective effect of CN016. Namely, thermal and mechanical nociceptive reactions described below were evaluated by tail immersion and von Frey filament tests, respectively, and motor coordination was assessed with the rotarod performance test (Supporting Information, Figure S1A,B). To mimic the clinical therapeutic regimen, CN016 (5, 10 and 20 mg/kg) was administrated to 7-week-old female C57BL/6 mice by intraperitoneal injection (IP) 1 h prior to each injection of paclitaxel (4.5 mg/kg) on four alternate days (days 1, 3, 5, and 7). Each test’s basal level was recorded before treatment, and additional sessions of behavior tests were performed weekly for five weeks (Figure 4A).
# (§6) The baseline of every neurological behavior test was measured in 6-week-old C57BL/6J female mice prior to treatment. […] Mechanical hyperalgesia was evaluated by using von Frey filament (#2390, IITC Inc., USA), thermal sensitivity was determined by the tail immersion assay (water temperature: 48–49 °C), and motor coordination was assessed by rotarod (#7750, Ugo Basile Biological Research Apparatus, Italy). After the first drug implantation, the body weight was recorded every 6 days throughout the entire experiment.
# Calcium Channel N-Type = Calcium Channel N-Type (Rattus norvegicus, UniProt Q02294); assay: LeadProfilingScreen: Calcium Channel N-Type; assay type: binding
# hERG [3] = biological target: T2, hERG; assay: hERG patch-clamp assay (hERG-CHO, automated patch-clamp); assay type: cell-based; set-up: host or cells: CHO (hERG-CHO)
# Method: CN016 were tested in the hERG (hERG-CHO, automated patch-clamp) assay and determined at Eurofins Panlabs (Missouri, USA). The experiment was accepted in accordance with Eurofins validation Standard Operating Procedure. The tested result […]
# Table S3. Result of hERG patch-clamp assay of CN016
# GABAA, Muscimol, Central = assay: LeadProfilingScreen: GABAA, Muscimol, Central; assay type: binding, rat; details: 10 μM
# Opiate κ (OP2, KOP) = Opiate κ (OP2, KOP) (Homo sapiens, UniProt P41145); assay: LeadProfilingScreen: Opiate κ (OP2, KOP); assay type: binding
# [4] = tested on: paclitaxel-induced neuropathy in C57BL/6 mice; assay: Tail immersion test (thermal sensation) in paclitaxel-induced neuropathy; assay type: in vivo, mouse
# Method: as §5, §6
# CYP 2D6 = biological target: T3, CYP 2D6 (Homo sapiens, UniProt P10635); assay: Cytochrome P450 testing, CYP 2D6; assay type: in vitro ADME; details: dextromethorphan O-demethylation; read-out: Concentration of inhibition (IC50), CYP 2D6
# T3 construct: host or cells: baculovirus-infected insect cells (supersomes)
# From the text: as §1, §2, §3, §4
# Dopamine D2S = Dopamine D2S (Homo sapiens, UniProt P14416); assay: LeadProfilingScreen: Dopamine D2S; assay type: binding
# sciatic nerve fibers = assay: Ultrastructure evaluation of the sciatic nerve (TEM); assay type: in vivo, mouse
# From the text: Sciatic nerves were isolated from mice after drug treatment and behavioral tests to examine the ultrastructure of nerve fibers. […] To evaluate the integrity of myelin, we calculated the G-ratio (axon perimeter/myelin perimeter) in different treatment groups. Because the symptoms of PIPN mostly manifest with sensory impairment,[28] we roughly classified nerve fibers into larger fibers (diameter > 5 μm) and small fibers (diameter < 5 μm) depending on the type of sensory information conveyed.[29] Large fibers with greater than 5 μm diameter carry information related to proprioception, touch, and pressure. In contrast, small fibers with less than 5 μm diameter carry information related to temperature and pain.
# Sciatic nerve samples from mice from each treatment group were isolated after the last time point of mouse behavioral tests. Fixation of sciatic nerves with 4% glutaraldehyde and post fixation with 1% osmium tetroxide solution at 4 °C were performed. […] Transmission electron microscopy (H7650, Hitachi) was used to observe the ultrastructure in the cross section of the sciatic nerves.
# [5] = biological target: Transporter, Dopamine (DAT) (Homo sapiens, UniProt Q01959); assay: LeadProfilingScreen: Transporter, Dopamine (DAT); assay type: binding
# [6] = CN016 5 mg/kg IP 1 h prior to paclitaxel 4.5 mg/kg
structure (smiles),measurement,setting,value
"O=P(O)(O)CCN1CCC(Nc2cc(N3CCOCC3)nc(NCc3cn(CCCO)nn3)n2)CC1 [CN016, {2-[4-(2-{[1-(3-Hydroxy-propyl)-1H-[1,2,3]triazol-4-ylmethyl]-amino}-6-morpholin-4-yl-pyrimidin-4-ylamino)-piperidin-1-yl]-ethyl}-phosphonic Acid Hydrobromide Salt]",inhibition at 10 µM,Prostanoid EP4,4%
same,inhibition at 10 µM,Glucocorticoid,14%
same,IC50,CYP 1A2,> 100 µM
same,inhibition at 10 µM,Adenosine A3,0%
same,inhibition at 10 µM,Adrenergic α1A,-9%
same,inhibition at 10 µM,hERG [1],-3%
same,"Inhibition (%), Purinergic P2X",Purinergic P2X,-9%
same,inhibition at 10 µM,Sigma σ1,0%
same,inhibition at 10 µM,Interleukin IL-1 R1,-3%
same,inhibition at 10 µM,Dopamine D4.4,12%
same,alleviation of mechanical allodynia (von Frey),[2]; [6],only moderately alleviated
same,alleviation of paclitaxel-induced mechanical allodynia (von Frey),[2]; CN016 10 or 20 mg/kg IP 1 h prior to paclitaxel 4.5 mg/kg,able to alleviate
same,inhibition at 10 µM,Calcium Channel N-Type,1%
same,inhibition at 1 µM,"hERG [3]; human, CHO cells that express hERG (hERG-CHO), 1 μM",6%
same,inhibition at 10 µM,"hERG [3]; human, CHO cells that express hERG (hERG-CHO), 10 μM",19.1%
same,inhibition at 100 µM,"hERG [3]; human, CHO cells that express hERG (hERG-CHO), 100 μM",32.9%
same,hERG liability,"hERG [3]; up to 100 μM, patch-clamp",not observed
same,"Inhibition (%), GABAA, Muscimol, Central","GABAA, Muscimol, Central",5%
same,inhibition at 10 µM,"Opiate κ (OP2, KOP)",3%
same,alleviation of thermal insensitivity (tail immersion),[4]; [6],only moderately alleviated
same,alleviation of paclitaxel-induced thermhypesthesia (tail immersion),"[4]; CN016 10 or 20 mg/kg IP 1 h prior to paclitaxel 4.5 mg/kg, days 1, 3, 5, 7",able to alleviate
same,IC50,CYP 2D6,> 100 µM
same,inhibition at 10 µM,Dopamine D2S,3%
same,myelinated fiber density of sciatic nerve (restoration of fiber loss),"sciatic nerve fibers; dose-dependent, particularly at 20 mg/kg",significantly restored
same,integrity of large fibers (diameter > 5 μm) of sciatic nerve,"sciatic nerve fibers; paclitaxel with pretreated CN016 5, 10 and 20 mg/kg",did not affect the integrity of large fibers
same,G-ratio in small fibers (diameter < 5 μm) of sciatic nerve,"sciatic nerve fibers; pretreated, particularly at 10 or 20 mg/kg, paclitaxel-treated mice",could rescue the observed axonal damage
same,proportion of atypical mitochondria in sciatic nerve,"sciatic nerve fibers; pretreatment, paclitaxel-treated mice",significantly decreased
same,inhibition at 10 µM,[5],0%
